We go through one molecule from US20250122567A1, “Methods of Identifying and Treating Subjects having Inflammatory Subphenotypes of Asthma” (National Jewish Health, priority 2015, published 2025).

In this assay the test system is HRV-16. In words: HRV-16 infection in DPP4 transfected cells with Alogliptin DPP4 inhibitor. The class given is cell-based, human rhinovirus-16. The note with it: 0.1 nM, InM and 10 nM of DPP4 inhibitor vs control.

SMILES strings stand for the structures.

For `Cn1c(=O)cc(N2CCC[C@@H](N)C2)n(Cc2ccccc2C#N)c1=O` [DPP4 inhibitor, Alogliptin], the “HRV-16 infection (mRNA) in DPP4 transfected and HRV-16 infected bronchial epithelial cells” value is reported as “reverses DPP4 downregulation of bronchial epithelial cells (BEC) HRV-16 Infection”.
